Laboratory results: IntAct's records for PubMed 20541704

B1: Cyclic AMP-responsive element-binding protein 1 (Homo sapiens), P16220 (parent)
chain: MTMESGAENQQSGDAAVTEAENQQMTVQAQPQIATLAQVSMPAAHATSSAPTVTLVQLPNGQTVQVHGVIQAAQPSVIQSPQVQTVQISTIAESEDSQESVDSVTDSQKRREILSRRPSYRKILNDLSSDAPGVPRIEEEKSEEETSAPAITTVTVPTPIYQTSSGQYIAITQGGAIQLANNGTDGVQGLQTLTMTNAAATQPGTTILQYAQTTDGQQILVPSNQVVVQAASGDVQTYQIRTAPTSTIAPGVVMASSPALPTQPAEEAARKREVRLMKNREAARECRRKKKEYVKCLENRVAVLENQNKTLIEELKALKDLYCHKSD
partner: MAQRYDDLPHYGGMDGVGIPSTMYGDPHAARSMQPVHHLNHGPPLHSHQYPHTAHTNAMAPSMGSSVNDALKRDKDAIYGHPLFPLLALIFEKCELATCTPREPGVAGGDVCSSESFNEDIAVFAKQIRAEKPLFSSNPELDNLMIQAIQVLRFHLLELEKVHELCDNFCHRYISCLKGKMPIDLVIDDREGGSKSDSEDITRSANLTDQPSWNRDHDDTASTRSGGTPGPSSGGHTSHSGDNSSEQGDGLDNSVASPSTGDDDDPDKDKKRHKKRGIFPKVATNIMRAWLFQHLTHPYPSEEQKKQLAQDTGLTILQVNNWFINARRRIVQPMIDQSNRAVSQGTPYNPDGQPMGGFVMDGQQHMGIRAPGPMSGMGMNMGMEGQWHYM
B2: Cyclic AMP-responsive element-binding protein 1 (Homo sapiens), P16220 (parent)
chain: B1 chain

Variants of: B1
Settings: with meis1_human MEIS1, O00470

Variant | effect of a mutation on the interaction
S115A | decreasing interaction
S119A | decreasing interaction

Variants of: B2
Settings: with cbp_human CREBBP

Variant | effect of a mutation on the interaction
S119A | decreasing interaction
S115A | decreasing interaction
